# Assay results: patent US20150366932A1, “METHODS FOR PRODUCING DIKETOPIPERAZINES AND COMPOSITIONS CONTAINING DIKETOPIPERAZINES” (AMPIO PHARMACEUTICALS, INC., priority 2013, published 2015)
# Protein sequences, listed by entry. Tags and fused reporters are not part of them. Residues count along the entry.
# UniProt P27487, 39-766 limits assumed: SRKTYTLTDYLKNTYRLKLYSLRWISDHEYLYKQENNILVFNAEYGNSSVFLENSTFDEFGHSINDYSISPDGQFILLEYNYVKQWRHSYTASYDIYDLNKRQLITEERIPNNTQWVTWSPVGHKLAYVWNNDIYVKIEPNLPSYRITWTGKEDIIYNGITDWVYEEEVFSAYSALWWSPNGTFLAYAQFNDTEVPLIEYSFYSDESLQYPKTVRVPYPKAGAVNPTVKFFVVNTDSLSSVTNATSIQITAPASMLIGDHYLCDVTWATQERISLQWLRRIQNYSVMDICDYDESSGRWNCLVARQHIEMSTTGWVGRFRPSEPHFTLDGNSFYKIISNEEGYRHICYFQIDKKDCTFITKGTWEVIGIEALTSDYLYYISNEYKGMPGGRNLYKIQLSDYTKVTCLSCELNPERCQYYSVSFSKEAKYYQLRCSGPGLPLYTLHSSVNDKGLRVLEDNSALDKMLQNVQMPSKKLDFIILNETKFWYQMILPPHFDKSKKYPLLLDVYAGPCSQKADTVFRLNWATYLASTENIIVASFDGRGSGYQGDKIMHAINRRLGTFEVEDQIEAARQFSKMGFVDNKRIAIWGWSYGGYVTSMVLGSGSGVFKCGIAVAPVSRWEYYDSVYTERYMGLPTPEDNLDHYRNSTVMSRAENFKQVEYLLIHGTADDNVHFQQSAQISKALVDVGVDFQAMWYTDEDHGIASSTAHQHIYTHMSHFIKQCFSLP
# Target: T1, dipeptidyl peptidase IV (DPP-IV) (Homo sapiens, UniProt P27487)
# T1 construct: the Cohn manufacturing process which isolates other plasma components such as DPP-IV; tissue CSL Behring LLC; Grifols Biologicals Inc; Octapharma USA Inc. (5% HSA products that contain the enzyme); host or cells: human plasma (Cohn fractionation; commercial 5% HSA solution)
# Assay: DPP-IV activity assay with chromogenic substrate Gly-Pro-pNA in HSA solutions
# Type: biochemical
# Settings: 1%, 2.5% and 5% w/v HSA; 37° C., 24 hour
# Experimental: DPP-IV activity was assayed by using a chromogenic substrate, Gly-Pro-pNA, as described in E. Nemoto, S. Sugawara, H. Takada, et al., Increase of CD26/dipeptidyl peptidase IV expression on human gingival fibroblasts upon stimulation with cytokines and bacterial components. Infect Immun 67 (1999) 6225-33. All reactions were carried out in DPP-IV assay buffer (pH 7.6) consisting of 0.1M HEPES, 0.12M NaCl, 5 mM KCl, 8 mM glucose, and 10 mg/ml bovine serum albumin (BSA). 5% commercial HSA, recombinant HSA, or buffer blank (0.9% NaCl) were combined with 1 mM Gly-Pro-pNA (DPP-IV substrate) in assay buffer or assay buffer only (−CON). Incubations were performed at 37° C. or 60° C. for 2-24 hours. […] All incubations were read at 405 nm (SpectraMax M2 spectrophotometer, Molecular Devices LLC, Sunnyvale, Calif., USA). Each reading at 405 nm was corrected by subtracting the A405 for the DPP-IV substrate-containing incubation from the corresponding A405 for the −CON incubation for each HSA solution tested.
# The amount of pNA produced in μM was calculated based on the pNA molar extinction coefficient in HEPES buffer (see R. Lottenberg, C. M. Jackson, Solution composition dependent variation in extinction coefficients for p-nitroaniline. Biochim Biophys Acta 742 (1983) 558-64). […]
# Dipeptidyl peptidase IV (DPP-IV) activity was assessed in commercial preparations of human serum albumin (HSA). […]
substance,measurement,value
"rHSA: recombinant HSA (ecoHSA) from Genlantis, produced in seeds of Asian Rice (Oryza sativa)","DPP-IV activity, cHSA versus rHSA",no significant DPP-IV activity
